Among the data in ChEMBL document CHEMBL1131412 are IC50 values, retold here.

Chains of the proteins cited; added tags and fusions are not shown.
UniProt P21917, whole entry: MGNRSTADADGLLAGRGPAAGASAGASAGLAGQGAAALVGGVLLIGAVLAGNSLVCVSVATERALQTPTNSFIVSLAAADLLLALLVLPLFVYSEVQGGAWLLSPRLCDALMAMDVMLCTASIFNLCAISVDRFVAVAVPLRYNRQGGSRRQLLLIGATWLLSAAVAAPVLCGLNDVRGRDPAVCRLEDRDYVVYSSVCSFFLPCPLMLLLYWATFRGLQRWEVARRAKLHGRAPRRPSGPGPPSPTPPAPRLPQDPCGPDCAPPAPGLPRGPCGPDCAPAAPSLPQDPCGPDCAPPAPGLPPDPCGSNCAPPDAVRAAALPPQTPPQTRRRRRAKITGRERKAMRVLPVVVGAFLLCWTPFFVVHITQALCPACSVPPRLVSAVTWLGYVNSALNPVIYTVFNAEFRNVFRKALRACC

Each structure is given as a SMILES string.

The target of the test is D(4) dopamine receptor (Homo sapiens, UniProt P21917). Kind of test: In vitro binding affinity at human cloned Dopamine receptor D4.2 by [3H]YM-09151-2 displacement.

As to `COc1ccc2c(c1)CC(NC(=O)CCN1CCN(c3ccccc3OC)CC1)CC2` (stereo unspecified), the half-inhibitory concentration (IC50) – broadly, the concentration needed to halve the response being measured – is 30 nM.
